# Results published in patent US20240358689A1, “Modulators Of The Beta-3 Adrenergic Receptor Useful For The Treatment Or Prevention Of Renal Cystic Disease and Cardiorenal Syndrome” (Arena Pharmaceuticals, Inc., priority 2021, published 2024).
# The chains behind the UniProt entries cited, without tags or fusion partners.
# UniProt P13945, whole entry: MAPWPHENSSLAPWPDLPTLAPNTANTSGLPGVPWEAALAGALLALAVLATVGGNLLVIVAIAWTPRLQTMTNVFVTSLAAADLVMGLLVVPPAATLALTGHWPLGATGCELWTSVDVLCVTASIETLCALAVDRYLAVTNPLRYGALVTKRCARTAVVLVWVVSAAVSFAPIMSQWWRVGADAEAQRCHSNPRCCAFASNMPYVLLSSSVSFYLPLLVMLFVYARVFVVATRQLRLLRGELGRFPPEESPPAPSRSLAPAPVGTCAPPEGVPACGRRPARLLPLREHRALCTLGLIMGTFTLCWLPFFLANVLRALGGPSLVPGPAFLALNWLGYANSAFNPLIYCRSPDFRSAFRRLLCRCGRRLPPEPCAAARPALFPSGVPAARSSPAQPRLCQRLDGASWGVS
# Molecular target: Beta-3 Adrenergic Receptor (Homo sapiens, UniProt P13945)
# Experiment: Homogeneous Time-Resolved Fluorescence (HTRF) cAMP antagonist assay
# Format: cell-based
# Details: specific IC50 values listed in text, CHO-K1 cells, isoproterenol at EC90
row,SMILES,IC50
1,CCN1CCOc2ncc(S(=O)(=O)N3CCC4(CC3)C[C@@H](NC[C@H](O)COc3cccc(S(=O)(=O)C5CC5)c3)CO4)cc21,29.4 nM
2,NCc1ccc(-c2cccc(S(=O)(=O)N3CCC4(CC3)C[C@@H](NC[C@H](O)COc3cccc(S(=O)(=O)CC(N)=O)c3)CO4)c2)cc1,84.6 nM
3,CCOc1ccc(-c2ccc(CN)cc2)cc1S(=O)(=O)N1CCC2(CC1)C[C@@H](NC[C@H](O)COc1cccc(S(=O)(=O)C3CC3)c1)CO2,15.8 nM
